Protein sequences, listed by entry. Tags and fused reporters are not part of them. Lines headed by an entry give the natural chain unless they say otherwise; changes in a name come on top.
UniProt P37136: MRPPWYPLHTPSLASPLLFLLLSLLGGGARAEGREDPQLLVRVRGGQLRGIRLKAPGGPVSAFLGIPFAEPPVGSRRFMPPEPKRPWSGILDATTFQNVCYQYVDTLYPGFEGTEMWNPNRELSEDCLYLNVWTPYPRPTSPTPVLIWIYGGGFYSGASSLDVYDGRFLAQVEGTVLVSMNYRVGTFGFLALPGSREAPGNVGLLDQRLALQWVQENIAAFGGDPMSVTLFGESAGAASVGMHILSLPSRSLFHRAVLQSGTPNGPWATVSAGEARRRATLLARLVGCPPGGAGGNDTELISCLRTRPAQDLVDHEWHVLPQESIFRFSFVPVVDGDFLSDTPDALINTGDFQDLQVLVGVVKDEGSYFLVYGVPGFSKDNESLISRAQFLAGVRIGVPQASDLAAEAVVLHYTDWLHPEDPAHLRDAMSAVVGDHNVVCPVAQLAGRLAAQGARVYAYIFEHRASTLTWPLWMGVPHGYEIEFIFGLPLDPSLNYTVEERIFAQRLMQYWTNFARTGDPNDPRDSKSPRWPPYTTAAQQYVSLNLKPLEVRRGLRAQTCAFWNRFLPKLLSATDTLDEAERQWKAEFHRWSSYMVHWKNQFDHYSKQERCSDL

In patent publication EP0471298B1, “Carbamoyl-1-(pyridinylalkyl)-1H-indoles, indolines and related analogs” (priority 1990, dated 1992):

Target: Acetylcholinesterase (AChE) (Rattus norvegicus, UniProt P37136)
Experiment: In vitro inhibition of acetylcholinesterase activity in rat striatum (modified Ellman method)
Format: biochemical
Details: read-out: Inhibitory Concentration IC₅₀; Brain acetylcholinesterase, rat striatum homogenate; preincubated 10 minutes at 37°C; acetylthiocholine 5 mM final; pH 7.2
Text: Cholinesterases are found throughout the body, both in the brain and in serum. However, only brain acetylcholinesterease (AChE) distribution is correlated with central cholinergic innervation. […] We have determined in vitro inhibition of acetylcholinesterase activity in rat striatum according to the method described below.
In Vitro Inhibition of Acetylcholinesterase Activity in Rat Striatum
The method described below was used in this invention for assaying anticholinesterase activity. This is a modification of the method of Ellman et al., Biochem. Pharmacol. 7, 88 (1961).
• A. Reagents - • 1. 0.05 M Phosphate buffer, pH 7.2 • (a) 6.85 g NaH₂PO₄·H₂O/100 mi distilled H₂O • (b) 13.40 g Na₂HPO₄·7H₂O/100 ml distilled H₂O • (c) add (a) to (b) until pH reaches 7.2 • (d) Dilute 1:10 • 2. […] If active, IC₅₀ values are determined from the inhibitory activity of subsequent concentrations. • B. Tissue Preparation - Male Wistar rats are decapitated, brains rapidly removed, corpora striata dissected free, weighed and homogenized in 19 volumes (approximately 7 mg protein/ml) of 0.05 M phosphate buffer, pH 7.2, using a Potter-Elvehjem homogenizer. […] Assay Enzyme activity is measured with the Beckman DU-50 spectrophotometer. […] This program also calculates the rate of absorbance change for each cuvette. […]

Q: How did the IC50 turn out when Physostigmine was run?
A: Its IC50 is 6 nM.
